Experimental data as given in patent publication US20220105081A1 (priority 2020, published 2022).

What was measured:
[1] = test system: Fentanyl-induced analgesia in rats; assay: Fentanyl-induced analgesia, tail flick
[2] = test system: respiratory depressant effects of Fentanyl in rats; assay: Blockade of the respiratory depressant effects of fentanyl
[3] = test system: Fentanyl-induced lateral recumbency in rats

Row | SMILES | blockade of fentanyl-induced analgesia (tail flick reaction time) [1] | time for which Fentanyl induced analgesia was modified ([1]; intraperitoneal 20, 30, or 40 mg/kg) | blockade of fentanyl effect on minute volume [2] | blockade of fentanyl effect on respiratory rate [2] | blockade of fentanyl effect on tidal volume [2] | time that rats were recumbent after fentanyl dosing [3]
1 | CCC(=O)NC1CC(C)N(CCc2ccccc2)CC1C (stereo not drawn) [VDM-001, N-[2,5-dimethyl-1-(2-phenylethyl)piperidin-4-yl]propanamide] | blocks fentanyl-induced analgesia | up to 30 minutes post dose | full blockade | partial blockade | partial blockade | 
2 | C=CCN1CC[C@]23c4c5ccc(O)c4O[C@H]2C(=O)CC[C@@]3(O)[C@H]1C5 [naloxone, 17-allyl-4,5a-epoxy-3,14-dihydroxymorphinan-6-one, reference compound] |  |  |  |  |  | significantly reduce the time that rats were recumbent
